{"sequences": {"note": "Sequences of proteins named here, by UniProt entry; tags and fusion partners are left off.", "UniProt P10635, whole entry": "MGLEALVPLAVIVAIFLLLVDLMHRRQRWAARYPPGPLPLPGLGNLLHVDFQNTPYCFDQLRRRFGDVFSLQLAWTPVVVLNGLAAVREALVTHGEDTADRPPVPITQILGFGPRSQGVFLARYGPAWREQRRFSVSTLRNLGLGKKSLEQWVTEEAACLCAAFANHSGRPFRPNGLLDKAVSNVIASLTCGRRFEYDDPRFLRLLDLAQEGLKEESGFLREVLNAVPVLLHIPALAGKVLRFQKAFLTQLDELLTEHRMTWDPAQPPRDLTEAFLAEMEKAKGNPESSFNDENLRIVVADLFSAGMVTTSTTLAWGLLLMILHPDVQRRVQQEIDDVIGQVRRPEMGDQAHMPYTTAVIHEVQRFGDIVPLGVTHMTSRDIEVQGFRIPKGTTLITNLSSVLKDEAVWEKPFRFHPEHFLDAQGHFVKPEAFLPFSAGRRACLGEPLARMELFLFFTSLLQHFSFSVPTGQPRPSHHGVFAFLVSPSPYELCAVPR"}, "source": "PubChem BioAssay (Tox21)", "note": "The entries are a selection whose mix differs from that of the whole data set. Records with an inconclusive call do not appear. Some structures have more than one record in an assay (separate samples or runs), and their calls can disagree. Activity calls are given as the source filed them. Calls come from the whole dose curve; as a rule, active = well fitted inhibition curve with a large enough effect in the repeat runs; inconclusive = weak or mixed curves; inactive = no such curve, though single readings can be large or run the other way. % is set by controls: 0 for no effect and ±100 for the full control effect; potency is the fitted concentration of half-maximal effect."}
{"molecular_target": "Cytochrome P450 2D6 (Homo sapiens) (UniProt P10635)", "test": "Cytochrome P450 Family 2 Subfamily D Member 6 (CYP2D6) small molecule antagonists: luciferase reporter qHTS assay (AID 1671196); note: nearly all actives have a fitted effect of over 50% in size", "settings": "P450-Glo CYP2D6 enzyme assay, luciferin luminescence, 1 h; series mostly up to 115 µM; activity change, negative = inhibition: at the top concentration", "excerpt": "U.S. Tox21 Program National Center for Advancing Translational Sciences [NCATS] U.S. Environmental Protection Agency [EPA] National Institutes of Environmental Health Sciences [NIEHS] National Toxicology Program [NTP] U.S. Food and Drug Administration [FDA] Tox21 Assay Overview: Cytochrome P450 (CYP) enzymes are membrane-bound hemeproteins that play a key role in metabolism of drugs and xenobiotics. Evaluation of the effect of chemicals on CYP isozymes is useful to minimize the adverse drug reactions and toxicities in drug development process. Tox21 chemicals were tested for their effect on CYP enzyme activities by using P450-Glo (TM) screening systems (Promega Corporation, Madison, WI). These systems provide a luminescent method containing proluciferin substrates and are converted to luciferin products by CYP isozymes. The luciferin products formed are detected with a luciferin detection reagent, and the amount of light produced is proportional to CYP activity. P450-Glo (TM) CYP2D6 screening system (Catalog. No. V9890) was used to detect the compounds that interfere in CYP2D6 activity.\nTox21 Assay Protocol Summary: Two ul of enzyme-substrate mix was dispensed into medium binding white/solid 1536-well plates (Greiner Bio-One North America Inc., Monroe, NC) using a BioRaptr Flying Reagent Dispenser (FRD, Beckman Coulter, Brea, CA). […] The assay plates were incubated at room temperature for 10 min. Then 2 ul of NADPH regeneration solution was added to each well of the assay plates using an FRD and incubated at room temperature for 1 h. The reaction was stopped by adding 4 ul of detection reagent using an FRD and after 20 min incubation at room temperature the luminescence signal was measured using a ViewLux plate reader (Perkin Elmer, Shelton, CT). Data were expressed as relative luminescence units."}
{"smiles": "Cc1cccc([N+](=O)[O-])c1[N+](=O)[O-]", "Potency": "active: 53.3 µM"}
{"smiles": "OCCSCCO", "Potency": "active: 32.2 µM and inactive"}
{"smiles": "COc1ccc([N+](=O)[O-])cc1[N+](=O)[O-]", "activity change, negative = inhibition": "inactive: -19.6%"}
{"smiles": "CP(=O)(O)OCCC[Si](O)(O)O", "activity change, negative = inhibition": "inactive: -6.73%"}
{"smiles": "CN(C)CCCl", "activity change, negative = inhibition": "inactive: -8.62%"}
{"smiles": "Cc1ccc([N+](=O)[O-])c([N+](=O)[O-])c1", "Potency": "active: 36.3 µM"}
{"smiles": "CCOP(=O)(CC)Oc1ccc([N+](=O)[O-])cc1", "note": "(stereo not given)", "Potency": "active: 3.09 µM"}
{"smiles": "CC(C)N(CCO)C(C)C", "activity change, negative = inhibition": "inactive: -0.594%"}
{"smiles": "Cc1ccc([N+](=O)[O-])cc1[N+](=O)[O-]", "Potency": "active: 35.1 µM and inactive"}
{"smiles": "[NH4+].[O-][Cl+3]([O-])([O-])[O-]", "Potency": "inactive"}
{"smiles": "O=[N+]([O-])c1cccc([N+](=O)[O-])c1", "Potency": "active: 66 µM"}
{"smiles": "C/C1=C2N=C(/C=C3N=C(/C(C)=C4\\[N-][C@@](C)([C@@H]5N=C1[C@](C)(CCC(=O)NC[C@@H](C)OP(=O)([O-])O[C@H]1[C@@H](O)[C@@H](n6cnc7cc(C)c(C)cc76)O[C@@H]1CO)[C@H]5CC(N)=O)[C@@](C)(CC(N)=O)[C@@H]4CCC(N)=O)[C@@](C)(CC(N)=O)[C@@H]\\3CCC(N)=O)C(C)(C)[C@@H]/2CCC(N)=O.[C-]#N.[Co+3]", "activity change, negative = inhibition": "inactive: -26.4% [at 53 µM]"}
{"smiles": "N=C(N)N[N+](=O)[O-]", "activity change, negative = inhibition": "inactive: -0.802%"}
{"smiles": "Cc1c([N+](=O)[O-])cccc1[N+](=O)[O-]", "Potency": "inactive"}
{"smiles": "COP(C)(=O)OC", "Potency": "inactive"}
{"smiles": "O=[N+]([O-])OCC(CO[N+](=O)[O-])(CO[N+](=O)[O-])CO[N+](=O)[O-]", "activity change, negative = inhibition": "inactive: -0.173%"}
{"smiles": "CCOP(=O)(CC)OCC", "activity change, negative = inhibition": "inactive: -0.61%"}
{"smiles": "N#CBr", "activity change, negative = inhibition": "inactive: -13%"}
{"smiles": "CC(C)OP(C)(=O)OC(C)C", "Potency": "inactive"}
{"smiles": "O=[N+]([O-])[O-].[NH4+]", "Potency": "inactive"}
